Consider one compound from US8623401B2.

Some compounds may have been tested in ways that are not shown here.

The data set is described as follows: Dog study: fentanyl blood (serum) concentrations by ELISA after oral wafer vs i.m. injection. Particulars: dogs, 200 mcg fentanyl by i.m. injection.

For `CCC(=O)N(c1ccccc1)C1CCN(CCc2ccccc2)CC1`, the “Cmax for the absorption of fentanyl” value is reported as “approximately 0.63 ng” and the “Tmax for the absorption of fentanyl” value worked out at 13.8 min.
